Assay results from ChEMBL document CHEMBL3763052, “Novel N-acyl-carbazole derivatives as 5-HT7R antagonists” (Eur J Med Chem, 2016).

By UniProt entry, the sequences of proteins in these tests, tags left out.
UniProt P34969, whole entry: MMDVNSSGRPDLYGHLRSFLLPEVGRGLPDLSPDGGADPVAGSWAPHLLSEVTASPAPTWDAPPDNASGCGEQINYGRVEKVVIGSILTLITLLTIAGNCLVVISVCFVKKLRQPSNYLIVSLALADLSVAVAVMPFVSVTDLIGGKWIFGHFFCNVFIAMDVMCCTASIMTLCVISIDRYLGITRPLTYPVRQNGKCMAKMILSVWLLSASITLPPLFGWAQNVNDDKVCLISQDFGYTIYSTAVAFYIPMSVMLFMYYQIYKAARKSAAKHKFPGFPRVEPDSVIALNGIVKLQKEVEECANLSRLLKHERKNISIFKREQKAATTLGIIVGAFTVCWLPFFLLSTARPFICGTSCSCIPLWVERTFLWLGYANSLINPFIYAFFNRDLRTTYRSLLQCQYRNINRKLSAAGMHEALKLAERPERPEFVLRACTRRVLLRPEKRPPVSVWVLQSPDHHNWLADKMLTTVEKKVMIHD

Biological target: 5-hydroxytryptamine receptor 7 (Homo sapiens, UniProt P34969)
Experiment: Displacement of [3H]LSD from 5-HT7 receptor (unknown origin) expressed in CHO-K1 cells by liquid scintillation counting method
Format: cell-based

Ki [nM]	Compound
364	CC1CCN(CCCCCC(=O)n2c3ccccc3c3ccccc32)CC1
604	CN(CCCCCC(=O)n1c2ccccc2c2ccccc21)Cc1ccccc1
